The values that follow come from US9040523B2, “Antifungal 5,6-dihydro-4H-pyrrolo[1,2-α][1,4]-benzodiazepines and 6H-pyrrolo[1,2-α][1,4]benzodiazepines substituted with benzene derivatives” (JANSSEN PHARMACEUTICA NV, priority 2010, dated 2015).

Amino acid sequences for entries named in this document (tags omitted). Residues count along the entry.
UniProt P08684, 2-503: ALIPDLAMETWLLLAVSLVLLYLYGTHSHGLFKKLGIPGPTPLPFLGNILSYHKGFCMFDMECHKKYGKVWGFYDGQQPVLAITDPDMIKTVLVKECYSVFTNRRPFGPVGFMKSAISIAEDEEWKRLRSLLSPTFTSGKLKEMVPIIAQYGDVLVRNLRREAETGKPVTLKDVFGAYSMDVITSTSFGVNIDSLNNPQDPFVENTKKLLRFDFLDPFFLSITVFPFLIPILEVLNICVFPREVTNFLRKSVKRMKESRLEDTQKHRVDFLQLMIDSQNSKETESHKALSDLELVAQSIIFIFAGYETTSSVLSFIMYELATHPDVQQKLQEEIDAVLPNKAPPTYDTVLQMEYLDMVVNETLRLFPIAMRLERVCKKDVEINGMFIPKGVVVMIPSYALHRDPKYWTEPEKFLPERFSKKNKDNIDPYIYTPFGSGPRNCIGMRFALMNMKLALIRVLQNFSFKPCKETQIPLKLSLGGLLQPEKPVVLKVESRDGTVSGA
UniProt P10632, whole entry: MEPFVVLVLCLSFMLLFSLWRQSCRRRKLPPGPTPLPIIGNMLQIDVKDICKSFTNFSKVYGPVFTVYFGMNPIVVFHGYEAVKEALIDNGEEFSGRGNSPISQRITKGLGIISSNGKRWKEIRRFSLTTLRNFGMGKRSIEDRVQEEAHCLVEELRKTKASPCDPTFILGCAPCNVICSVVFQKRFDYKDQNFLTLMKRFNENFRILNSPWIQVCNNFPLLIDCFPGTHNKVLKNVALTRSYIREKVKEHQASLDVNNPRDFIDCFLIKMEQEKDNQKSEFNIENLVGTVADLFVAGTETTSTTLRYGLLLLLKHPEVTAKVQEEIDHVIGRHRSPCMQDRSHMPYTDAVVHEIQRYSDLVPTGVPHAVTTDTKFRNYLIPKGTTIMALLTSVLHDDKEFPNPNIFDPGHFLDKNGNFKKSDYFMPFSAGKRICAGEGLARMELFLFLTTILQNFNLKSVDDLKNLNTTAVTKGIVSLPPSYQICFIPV

For data set [1], the system named is Trichophyton mentagrophytes B70554. The data set is described as follows: Antifungal activity in vitro (resazurin susceptibility screen), Inf. G. The note with it: 27 °C, 7 days, resa time 24 hours, read-out: Inf. G pIC50 (converted). Format: cell-based. (In general: Alamar Blue is a resazurin reagent that responds to reducing activity.)
For the next data set, the target named is CYP3A4/5 (Homo sapiens, UniProt P08684). The data set is described as follows: in vitro. The settings on record: liver microsomes, pH 7.4, probe midazolam (2 microM), 3A4_mido pIC50, human liver microsomes 0.2 mg/ml.
The target of a further data set is T1, Cytochrome P450 2C8 (Homo sapiens, UniProt P10632).
T1 construct: tissue BD Gentest; host or cells: human liver microsomes
The data set is described as follows: Human liver microsomal cytochrome P450 cocktail inhibition assay, Protocol C. It is filed as in vitro ADME. The note with it: human liver microsomes 0.2 mg/ml, probe amodiaquine 2 microM. On the technique in general: Liver microsomes are vesicles of endoplasmic reticulum, rich in cytochrome P450 enzymes.

Data set [2] concerns Candida parapsilosis B66126. The data set is described as follows: Antifungal activity in vitro (resazurin susceptibility screen), Inf. D. Format: cell-based. The note with it: Lodderomyces parapsilosis, 37 °C, 24 hours, resa time 4 hours, read-out: Inf. D pIC50 (converted).
Another data set concerns Microsporum canis B68128. The data set is described as follows: Antifungal activity in vitro (resazurin susceptibility screen), Inf. B. The settings on record: B68128, read-out: Inf. B pIC50, Microsporum canis B68128 (converted), 27 °C, 9 days, resa time 24 hours.

Consider `CC(=O)c1cccc(C2NCc3c(Cl)cccc3-n3cccc32)c1` (stereo not drawn) [Compound 4, 1-[3-(7-chloro-5,6-dihydro-4H-pyrrolo[1,2-a][1,4]benzodiazepin-4-yl)phenyl]-ethanone], for which the IC50 in data set [1] is 25.1 µM.

Consider `CC(O)c1ccc(C2NCc3c(Cl)cccc3-n3cccc32)cc1` (stereo not drawn) [drawing 97], for which, at CYP3A4/5, the IC50 at 10 min was above 10 µM.

At CYP3A4/5, `CC(=O)c1cccc(C2NCc3c(Cl)cccc3-n3cccc32)c1` (stereo not drawn) [drawing 99] had an IC50 at 10 min of 2.51 µM.

In turn, `CCc1ccc(C2=NCc3c(Cl)cccc3-n3cccc32)cc1` [drawing 92] yielded an IC50 at 10 min on CYP3A4/5 above 10 µM.

For `Br.CC(=O)c1ccc(C2NCc3c(Cl)cccc3-n3cccc32)cc1` (stereo not drawn) [drawing 96], the “2C8_Amod pIC50” value on Cytochrome P450 2C8 worked out at 5.1.

In turn, `CC(=O)c1ccc(C2=NCc3c(Cl)cccc3-n3cccc32)cc1` [drawing 91] came in with an IC50 at 10 min at CYP3A4/5 above 10 µM.

With `CC(=O)c1ccc(C2NCc3c(Cl)cccc3-n3cccc32)cc1` (stereo not drawn) [drawing 94], the IC50 at Cytochrome P450 2C8 (read-out: 2C8_Amod pIC50 (converted)) was 7.94 µM. For the same molecule, the IC50 at 10 min against CYP3A4/5 is 7.94 µM.

As to `CC(=O)c1ccc(C2NCc3ccc(Cl)cc3-n3cccc32)cc1` (stereo not drawn) [drawing 101], the IC50 at 10 min on CYP3A4/5 is 10 µM.

In the case of `CC(=O)c1ccc(C2NCc3c(Cl)cccc3-n3cccc32)cc1.Cl` (stereo not drawn) [Compound 5, 1-[4-(7-chloro-5,6-dihydro-4H-pyrrolo[1,2-a][1,4]benzodiazepin-4-yl)phenyl]-ethanone .HCl], the IC50 is 7.94 µM in data set [2] and 0.794 µM in the data set on Microsporum canis B68128.

`CCc1ccc(C2NCc3c(Cl)cccc3-n3cccc32)cc1` (stereo not drawn) showed an IC50 at 10 min at CYP3A4/5 of 6.31 µM.
